Most compounds without a hit are left out; they make up all but 13% or so of the library.
Lamin A splicing: changes lamin A minigene splicing in HeLa cells. HeLa LMNA splicing GFP/RFP minigene ratio, 48 h. Potency, µM (titrated, usually from 46.1 µM), for the others: at the top dose ratio change, negative = inhibition, actives largely listed as inhibitors. hit rate 0.01% among 200,000. AID 1487; active = well fitted inhibition curve with a large enough effect in the signal ratio, with a control signal flat, not every such curve was filed as active; inconclusive = small, poorly fitted or top-dose-only effect, or effect the other way, or a change in a side signal; the % refers to the signal ratio; note: potency is the fitted concentration of half-maximal effect; % is set by controls: 0 for no effect and ±100 for the full control effect
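S3 HeLa cells stably expressing lamin A-EGFP splicing minigene plus DsRed2, 600 cells/well, 48 h compound exposure at 37C. Laser-scanning cytometry; analysed as GFP (500-530 nm)/RFP (575-640 nm) total intensity ratio; 0.5% DMSO vehicle.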
miR-21 reporter: raises the signal of a miR-21 reporter; HeLa miR-21 FLuc reporter, luciferase, 48 h; Potency, µM (series often up to 38.3 µM), inactives show top-dose reporter change, positive = more light; 340,000 tested, under 10 active; active = well fitted rising curve with a large enough effect; inconclusive = small, poorly fitted or top-dose-only effect; inactive = no such curve, though single readings can be large or run the other way;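 also: % of control where 0% means no effect; miR-21 action dims this reporter so a rising signal means less miR-21 action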
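Using DMEM plus 10% FBS, HeLa miR-21-FLuc cells are incubated with test compounds (final up to about 40uM) for 48 hours; firefly luciferase signal is then imaged following reagent-mediated lysis.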
ALDH1A1 inh: blocks purified human ALDH1A1 activity; P00352; Purified ALDH1A1, NADH fluorescence, propionaldehyde substrate; Potency, µM (top dose mostly 75.3 µM), inactives show top-dose activity, negative = inhibition, hits mostly inhibitors; hit rate 7.3% among 220,000; active = well fitted inhibition curve with a large enough effect, not every such curve was filed as active; inconclusive = small, poorly fitted or top-dose-only effect, or another doubt; inactive = no such curve, though single readings can be large or run the other way;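 note: potency is the fitted concentration of half-maximal effect; plate controls were no enzyme wells and a reference inhibitor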
JMJD2E inh: JMJD2E (human) inhibition; JMJD2E catalytic domain, FDH-coupled NADH fluorescence (FDH is formaldehyde dehydrogenase); Potency, µM (top dose mostly 57.1 µM), for the others: at the highest dose activity change, negative = inhibition, hits mostly inhibitors; hit rate 1.6% among 230,000; AID 2147; active = well fitted inhibition curve with a large enough effect, not every such curve was filed as active; inconclusive = small, poorly fitted or top-dose-only effect, or another doubt; inactive = no such curve, though single readings can be large or run the other way;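 note: potency is the fitted concentration of half-maximal effect; 0% = wells with enzyme and -100% = buffer wells without enzyme; nearly all actives have a fitted effect of over 50% in size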
Sfp inh: qHTS Assay for Inhibitors of Bacillus subtilis Sfp phosphopantetheinyl transferase (PPTase) | 4'-phosphopantetheinyl transferase ffp (Bacillus subtilis), Q9F4F7 | AID 1490, 2009 | actives 3.5% (n = 310,000) | Biochemical Sfp PPTase activity, qHTS | Potency, µM, for inactives: max response, negative = inhibition, most hits filed as inhibitors; active = well fitted inhibition curve with a large enough effect; inconclusive = small, poorly fitted or top-dose-only effect, or another doubt; inactive = no such curve, though single readings can be large or run the other way;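 also: the enzyme is Sfp with the accession as filed and its product quenches rhodamine fluorescence; potency is read from the fitted curve at half-maximal effect; 0% = enzyme reaction without inhibitor and -100% = no enzyme wells; top concentration of the series not given in the record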
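Sfp 15 nM + cpd, 15 min RT; start w/ rhodamine-CoA 5 uM, BHQ-2-YbbR 12.5 uM (final); 50 mM Hepes pH 7.6, 10 mM MgCl2, 0.01% NP-40, 0.01% BSA; read 525/598 nm at 0 and 30 min.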
G9a block: blocks human histone lysine methyltransferase G9a. hit rate 8.8% among 350,000. G9a H3K9 monomethylation, AlphaScreen, 2 h. Potency, µM (doses to about 102 µM), inactives show at the highest dose activity, negative = inhibition, hits mostly inhibitors. AID 504332. Q96KQ7; note: potency is the fitted concentration of half-maximal effect; % is set by controls: 0 for no effect and ±100 for the full control effect; nearly all actives have a fitted effect of over 75% in size
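Readings reflect AlphaScreen signal from monomethyl-H3K9 antibody detection. HMT at 20 nM; substrate b-H3K9 500 nM; cofactor SAM 20 uM; 2 h RT reaction; compounds tested as titrations in qHTS with 15 min preincubation.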
The depositor's hits bear a star; [ ] = remark or other dose. Unless noted, calls come from the whole dose curve; as a rule, active = well fitted curve in the direction sought with a large enough effect; inconclusive = small, poorly fitted or top-dose-only effect, or another doubt; inactive = no such curve, though single readings can be large; an effect the other way counts as inactive or inconclusive.

Results for O=S(=O)(c1ccc(F)cc1)N1CCN(CC(O)COc2ccccc2F)CC1 (stereo not drawn) ?
miR-21 reporter: 1%; Sfp inh: 56µM*; G9a block: 8.9µM*

What do the screens show for `O=S(=O)(c1ccccc1C(F)(F)F)N1CCN(CC(O)COc2ccccc2F)CC1` (stereo not drawn)?
miR-21 reporter: 4%; Sfp inh: inconclusive; G9a block: -4%[0.501 µM]

How did N#Cc1ccccc1S(=O)(=O)N1CCN(CC(O)COc2ccccc2F)CC1 (stereo not drawn) do in these assays?
miR-21 reporter: 1%; Sfp inh: 56µM*; G9a block: 2.2µM*

Results for N#Cc1ccccc1S(=O)(=O)N1CCN(CC(O)c2ccccc2)CC1 (stereo not drawn) ?
miR-21 reporter: 0%; ALDH1A1 inh: 0%; JMJD2E inh: inconclusive; Sfp inh: -21%; G9a block: 16µM*

How did O=S(=O)(c1ccc(F)cc1)N1CCN(CC(O)COCc2cccs2)CC1 (stereo not drawn) do in these assays?
Lamin A splicing: 13%; miR-21 reporter: -12%; ALDH1A1 inh: -9%; JMJD2E inh: -21%; Sfp inh: -6%; G9a block: 32µM*

What do the screens show for `CCOC(=O)CSc1nc2sc3c(c2c(=O)n1Cc1ccccc1)CC(C(C)C)OC3` (stereo not drawn)?
miR-21 reporter: 0%; G9a block: -9%[59 µM]

How did Oc1c(C(c2ccccc2)N2CCOCC2)sc2nc(-c3ccco3)nn12 (stereo not drawn) do in these assays?
Lamin A splicing: 20%[46 µM]; miR-21 reporter: -5%; G9a block: -25%[59 µM]

Results for O=S(=O)(c1ccccc1)N1CCN(CC(O)COc2ccc3c(c2)CCC3)CC1 (stereo not drawn) ?
Lamin A splicing: inconclusive; miR-21 reporter: 9%; ALDH1A1 inh: -6%; JMJD2E inh: -1%; Sfp inh: 10%; G9a block: inconclusive

How did CC(C)c1ccccc1OCC(O)CN1CCN(S(=O)(=O)c2ccc([N+](=O)[O-])cc2)CC1 (stereo not drawn) do in these assays?
miR-21 reporter: 24%; Sfp inh: -22%; G9a block: 35µM*

What do the screens show for `COCCNC(=O)c1cc(S(=O)(=O)N2CCOCC2)ccc1SCc1cccc(OC)c1OC`?
miR-21 reporter: -1%; ALDH1A1 inh: 0%; JMJD2E inh: 1%; Sfp inh: inconclusive; G9a block: 28µM*

What do the screens show for `COc1ccccc1CNC(=O)c1oc2ccc(S(=O)(=O)N3CCOCC3)cc2c1C`?
miR-21 reporter: -6%; Sfp inh: 3%; G9a block: 8%[59 µM]

Results for COc1cccc(CSc2ccc(S(=O)(=O)N3CCOCC3)cc2C(=O)NCC2CCCO2)c1OC (stereo not drawn) ?
miR-21 reporter: -9%; ALDH1A1 inh: inconclusive; JMJD2E inh: -1%; Sfp inh: -26%; G9a block: 40µM*

Results for CNc1nc2c(N)ncnc2n1[C@@H]1O[C@@H]2COP(=O)(O)O[C@H]2[C@H]1O ?
Sfp inh: 14%

What do the screens show for `CCC[n+]1c2ccccc2cc2ccccc21`?
miR-21 reporter: inconclusive; Sfp inh: 50µM*; G9a block: 3.5µM*

Results for CCCC[n+]1c2ccccc2cc2ccccc21 ?
miR-21 reporter: 25%; Sfp inh: inconclusive; G9a block: 1.3µM*

What do the screens show for `CCOc1ccccc1NC(=O)C(=O)NCC(c1cccnc1)N1CCN(c2ccccc2)CC1` (stereo not drawn)?
Lamin A splicing: 1%[46 µM]; miR-21 reporter: 19%; G9a block: 7%[59 µM]

What do the screens show for `CCCn1c(N)c(C(=O)CN(C)CC(=O)Nc2ccc(C)cc2)c(=O)[nH]c1=O`?
G9a block: 45µM*

What do the screens show for `CCCn1c(N)c(C(=O)CN(C)CC(=O)Nc2cc(C)ccc2C)c(=O)[nH]c1=O`?
G9a block: 50µM*

What do the screens show for `Cc1ccc(C2OC(=O)C=C2c2ccccc2)cc1` (stereo not drawn)?
G9a block: 16%[2.33 µM]

How did Cc1cn2c(=O)cc(COc3cccc(NC(=O)c4ccccc4C)c3)nc2s1 do in these assays?
miR-21 reporter: -25%; G9a block: -22%[59 µM]

Results for O=C(C1CCCN(S(=O)(=O)c2ccc(Br)s2)C1)N1CCCCCC1 (stereo not drawn) ?
Lamin A splicing: inconclusive; miR-21 reporter: 3%; ALDH1A1 inh: 5.6µM*; JMJD2E inh: 12%; Sfp inh: -10%; G9a block: -26%[59 µM]

Results for CN1CCN(C(=O)C2CCCN(S(=O)(=O)c3ccc(F)cc3)C2)CC1 (stereo not drawn) ?
miR-21 reporter: 0%; Sfp inh: inconclusive; G9a block: 14µM*

How did CN1CCN(C(=O)C2CCN(S(=O)(=O)c3ccc(F)cc3)CC2)CC1 do in these assays?
miR-21 reporter: -4%; Sfp inh: 5%; G9a block: 4%

What do the screens show for `O=C(NC1CC(=O)N(c2cccc(F)c2)C1)c1ccc2c(c1)OCO2` (stereo not drawn)?
Lamin A splicing: 13%[46 µM]; miR-21 reporter: -1%; G9a block: -3%[59 µM]

What do the screens show for `CC(=O)NCc1ccc(C(=O)O)cc1`?
miR-21 reporter: -2%; JMJD2E inh: -11%; Sfp inh: -4%; G9a block: 11%

How did CC1CSC(N(C(=O)c2ccc(S(C)(=O)=O)cc2)c2ccc(Cl)cc2)=N1 (stereo not drawn) do in these assays?
miR-21 reporter: 0%; Sfp inh: inconclusive; G9a block: 8.9µM*

What do the screens show for `Cc1ccc(C(=O)N(c2ccc(C)cc2)S(=O)(=O)c2ccc(Cl)cc2)cc1`?
miR-21 reporter: 28%; G9a block: 10%[59 µM]

What do the screens show for `COc1ccc(NC(=S)N(CCC(C)C)C2CCN(C(C)C)CC2)cc1`?
miR-21 reporter: 0%; Sfp inh: -3%; G9a block: -50%

What do the screens show for `COc1ccc(NC(=S)N(C(C)C)C2CCN(C(C)C)CC2)cc1Cl`?
miR-21 reporter: -8%; Sfp inh: inconclusive; G9a block: 45µM*

Results for COc1ccc(NC(=S)N2CCC(N(C)CC3CCCO3)CC2)cc1Cl (stereo not drawn) ?
Lamin A splicing: -10%; miR-21 reporter: -10%; ALDH1A1 inh: 6%; JMJD2E inh: 4%; Sfp inh: 40µM*; G9a block: -11%[59 µM]

What do the screens show for `Cc1ccn2c(c1)nc(=S)n2C(=O)c1ccccc1`?
Lamin A splicing: inconclusive; miR-21 reporter: -37%; ALDH1A1 inh: inconclusive; JMJD2E inh: 2%; Sfp inh: -17%; G9a block: 45µM*
